## Measured water solubility values of organic chemicals

From the experimental data distributed with OPERA 2.9.

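OPERA's authors assembled the values from existing databases and did not measure them anew. The files give a single number for a compound and property, which may rest on several reports. Method, purity and exact conditions of the single measurements are not given. The measured form (salt, isomer or mixture) is not always the one drawn. Unmarked limits or estimates from the upstream databases cannot be ruled out.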

Water solubility is log10 of mol/L, nominally at 25 °C; higher is more soluble.

| compound | water solubility (log10 mol/L) |
|---|---|
| CC(C)OC(=O)C(O)(c1ccc(Br)cc1)c1ccc(Br)cc1 | -5.78 |
| CC(=O)OC1CCC2C3CCC4=CC(=O)CCC4(C)C3CCC12C (stereo unspecified) | -5.18 |
| COP(=O)(OC)OC1=C(Cl)CC2C=CC12 (stereo unspecified) | -2.057 |
| OC[C@@H](O)[C@H]1O[C@@H]2O[C@H](C(Cl)(Cl)Cl)O[C@@H]2[C@H]1O | -1.84 |
| COP(=S)(OC)Oc1ccc(S(C)=O)c(C)c1 (stereo unspecified) | -4.9 |
| CN1COCN(Cc2cnc(Cl)s2)C1=N[N+](=O)[O-] | -1.851 |
| NC(=O)c1cc([N+](=O)[O-])cc([N+](=O)[O-])c1 | -1.839 |
| Cc1cc(C(C)(C)c2ccc(O)c(C)c2)ccc1O | -4.085 |
| N#CC(F)(C(F)(F)F)C(F)(F)F | -5.856 |
| O=C(CCl)Nc1ccccc1 | -1.83 |
| N#CCCSCCC#N | -0.749 |
| CC1(C(=O)Nc2ccc(O)c(Cl)c2Cl)CCCCC1 | -4.18 |
| CCON=C(CC)C1=C(O)CC(c2c(C)cc(C)cc2C)CC1=O (stereo unspecified) | -4.73 |
| CCCOC(=O)OOC(=O)OCCC | -3.976 |
| O=S(=O)(Oc1ccc(Cl)cc1)c1ccc(Cl)cc1 | -5.01 |
| COC(=O)N(C(=O)N1CO[C@@]2(C(=O)OC)Cc3cc(Cl)ccc3C2=N1)c1ccc(OC(F)(F)F)cc1 | -6.42 |
| CCOC(=O)COc1ccc(Cl)cc1Cl | -3.35 |
| O=C([O-])C(F)(F)C(F)(F)C(F)(F)C(F)(F)C(F)(F)C(F)(F)C(F)(F)F.[Na+] | -0.747 |
| CC(C)ON=O | -1.594 |
| Nc1cc(Cl)c(Cl)cc1Cl | -3.436 |
| Brc1ccc(Oc2ccc(Br)cc2)cc1 | -6.293 |
| S=C=Nc1ccc(Br)cc1 | -0.268 |
| O=C(O)C(F)(F)C(F)(F)C(F)(F)C(F)(F)C(F)(F)C(F)(F)F | -0.489 |
| CCCCC1(CC(C)C)C(=O)NC(=O)NC1=O | -2.506 |
| CCCCCCCCO[PH](=O)OCCCCCCCC | -3.812 |
| COc1cc([C@@H]2c3cc4c(c(O)c3C[C@H]3COC(=O)[C@@H]32)OCO4)cc(OC)c1O | -4.125 |
| COC(=O)N(OC)c1ccccc1COc1ccn(-c2ccc(Cl)cc2)n1 | -5.31 |
| CCN[C@@H](C)Cc1cccc(C(F)(F)F)c1 | -4.032 |
| C[C@@H]1O[C@@H](O[C@H]2CC[C@]3(C=O)[C@H]4CC[C@]5(C)[C@@H](C6=CC(=O)OC6)CC[C@]5(O)[C@@H]4CC[C@]3(O)C2)[C@H](O)[C@H](O)[C@H]1O | -3.04 |
| O=S(=O)([O-])C(F)(F)C(F)(F)C(F)(F)C(F)(F)C(F)(F)C(F)(F)C(F)(F)C(F)(F)F.[K+] | -3.361 |
| CN1C[C@H](C(=O)O)C=C2c3cccc4[nH]cc(c34)C[C@H]21 | -3.002 |
| Cc1cccc([C@H](C)c2cnc[nH]2)c1C | -3.061 |
| CCOC(=O)C(Cl)C(=O)OCC | -1.721 |
| COC(=O)C(C)Oc1ccc(Oc2ccc(Cl)cc2Cl)cc1 (racemic) | -5.13 |
| CC(C)(c1cc(Br)c(OCC2CO2)c(Br)c1)c1cc(Br)c(OCC2CO2)c(Br)c1 (stereo unspecified) | -7.395 |
| CCCCC(CC)COC(=O)OOC(C)(C)CC (stereo unspecified) | -6.088 |
| FC(F)=C(F)OC(F)(F)C(F)(F)F | -4.954 |

Extract of 4 entries:

| compound | water solubility (log10 mol/L) |
|---|---|
| N#CCCSCCC#N | -0.749 |
| COP(=O)(OC)OC1=C(Cl)CC2C=CC12 (stereo unspecified) | -2.057 |
| CCOC(=O)C(Cl)C(=O)OCC | -1.721 |
| OC[C@@H](O)[C@H]1O[C@@H]2O[C@H](C(Cl)(Cl)Cl)O[C@@H]2[C@H]1O | -1.84 |